Like-named read-outs stand apart in the source and are kept apart here.
B1: M. mazei Adriase: Methanosarcina mazei Adriase (MM_2909), archaeal peptide recombinase, C-terminal His6-tag; Strep-, Myc-, HA-tagged versions used as pulldown bait (protein)
chain: TLVIAFIGKNGAVMAGDMREITFEGEKPDREKLEKELYSGSIVTDEEMQKKAEEFGVKITVADCKEKVSERNGVLVGEVSSAEGGVVKKRRLYASAGNFAIAELINTEMTLTSQGKGSNFIAFGNEFTKQVANKCFKDNWTKKSNLQDAVKILILCMETVARKTASVSKQFMIVQTASNADVLKVVEKDRNCGSHHHHHH
modifications: C-terminal His6-tag; M. mazei Adriase with C-terminal His-tag
notes: Methanosarcina mazei Adriase (MM_2909), archaeal peptide recombinase, C-terminal His6-tag; Strep-, Myc-, HA-tagged versions used as pulldown bait
B2: N-His: M. jannaschii Adriase variant lacking a free amino group at the active site serine (N-terminal His6-tag) (protein, listed as Methanocaldococcus jannaschii)
chain: MGSSHHHHHHSSGLVPRGSHMSLIICYYGKNGAVIGGDRRQIFFRGSEENRKILEEKLYSGEIKSEEELYKLAEKLNIKIIIEDDREKVRKISDSVVCGEVRSLGIDAKRRRVYATKGKCAIVDILNDTVTNQTIKEGFGIVVLGNRFLKKKAEEELKRTAKLFPMMPIQQIEDAIKEIFEKLKWHPTVSKEYDIYSVNKYEKNFEEVIKKDIESLFKYREQLRKQLIDFGKVMSIVNKIVKNGEIGVIKDGKLHLYDDYIAIDKIDPNPKVFKVVDVEGNFKDGDIVVIENGDMKIKGTNEKVTTKYIIIHK
modifications: N-terminal His6-tag; N-terminally modified M. jannaschii Adriase

Columns and labels:
[1] = tested on: Strep-Ub-(5)KDPGA(10)-His6 and PGA(15)-Ub in E. coli cell lysates; assay: Ligation of two recombinantly expressed substrates in cell lysates with single step purification; conditions: 0.09 g/l enzyme, 15 min, 37° C.
[2] = tested on: (15)KDPGA(10) and PGA(10F) substrates; conditions: 100 nM enzyme, 15 μM substrates, 8 min, 85° C. (M. jannaschii variants) or 50° C. (M. mazei)
[3] = tested on: (15)KDPGA(10) and PGA(10F) substrates; conditions: 15 μM substrates, 8 min, 80° C.

Molecule | substrate specificity in complex solutions [1] | ligase activity (fluorescent ligation product) [2] | ligase activity (fluorescent ligation product) ([2]; listed as N-terminally modified M. jannaschii Adriase) | ligase activity at low enzyme concentrations / standard assay conditions [3] | decrease of ligase activity compared to unmodified Adriase ([3]; 7-15000 nM enzyme)
B1 | highly specific | – | – | – | –
B2 | – | no ligation product is observed | no transpeptidase activity | no activity | ~ 200 ×
